Literature values as cited in patent US8507550B2, “Treatment for altitudinal hypoxia” (AesRx LLC, priority 2010, dated 2013).

Test system: rats
Settings: males; cited from earlier work

## O=Cc1ccc(CO)o1 [5-HMF, 5-hydroxymethyl-2-furfural]
  acute oral LD50: 2500 mg/kg
